Target: Mesothelin (MSLN) on target cells (human)

Substance: murine SS1 MSLN CAR, second generation (MSLN_SS1 CD8HT 41BB CD3z)
- Time (hours) to 80% max killing of HeLa cells by transduced primary T cells (hours to 80% max killing (E:T 4:1)): 44

From US20230277590A1
